{"source": "patent US8389538B2", "about": "“Rexinoid compound having alkoxy group” (National University Corporation Okayama University, priority 2007, dated 2013)", "type_in_all_cases": "cell-based", "key": {"RXRγ": {"target": "T1, RXRγ (Homo sapiens, UniProt P48443)", "T1 construct": "expressed in transfected cells; host or cells: COS-1 cells", "T1 sequence (P48443 1-463)": "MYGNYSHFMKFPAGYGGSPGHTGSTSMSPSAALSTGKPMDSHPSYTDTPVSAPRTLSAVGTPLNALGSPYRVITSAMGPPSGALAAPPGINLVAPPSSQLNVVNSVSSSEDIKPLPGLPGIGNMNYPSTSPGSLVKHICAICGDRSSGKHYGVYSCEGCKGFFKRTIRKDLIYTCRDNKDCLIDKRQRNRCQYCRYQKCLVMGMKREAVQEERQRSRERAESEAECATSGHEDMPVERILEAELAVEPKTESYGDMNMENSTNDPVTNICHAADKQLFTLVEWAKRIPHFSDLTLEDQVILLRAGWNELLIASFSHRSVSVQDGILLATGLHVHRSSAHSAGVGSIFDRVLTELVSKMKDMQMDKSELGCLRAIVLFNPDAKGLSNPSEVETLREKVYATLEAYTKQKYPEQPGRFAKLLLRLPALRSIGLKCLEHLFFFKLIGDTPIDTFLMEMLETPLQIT", "assay": "RXR reporter gene assay (luciferase) in COS-1 cells, RXRγ"}, "[1]": {"test_system": "Human leukemia cell strain HL-60", "assay": "HL-60 differentiation induction (NBT reduction method)", "experimental": "Human leukemia cell strain HL-60 differentiates into granulocytes (neutrophils) to come to have an ability to express active oxygen. […] A method for measuring differentiation inducibility of cells into granulocytes by using this principle is referred to as NBT reduction method. So, the differentiation inducibility of the synthesized compound was measured by NBT reduction method. Fetal bovine serum (FBS) was added to RPMI-1640 media into 10 v/v % and further antibiotics (penicillin and streptomycin) added, and that was used as a growth medium to culture human leukemia cell strain HL-60. […] Each compound was dissolved in dimethylsulfoxide (DMSO) into 20 mM to prepare a stock solution. NBT was prepared into 0.2 w/v % by using PBS (−) 2 hours before use and incubated at 37° C. TPA was dissolved in ethanol (EtOH) into 2 mg/mL to prepare a stock solution. This TPA solution was prepared into 20 μg/mL by using PBS (−) at the time of use. […] The action of RXR agonist is enhanced by the combined use of that and RAR agonist. […] After four days cultivation, cells were collected by centrifugation (4° C., 1500 rpm, 5 minutes). […] Then, stained cell number and total cell number were counted on a cell counter. Meanwhile, the measurement was conducted three times by counting 200 cells or more at a time and a differentiation inducing rate was calculated from a mean value obtained by averaging them. […]"}, "RXRβ": {"target": "T2, RXRβ (Homo sapiens, UniProt P28702)", "T2 construct": "expressed in transfected cells; host or cells: COS-1 cells", "T2 sequence (P28702 1-533)": "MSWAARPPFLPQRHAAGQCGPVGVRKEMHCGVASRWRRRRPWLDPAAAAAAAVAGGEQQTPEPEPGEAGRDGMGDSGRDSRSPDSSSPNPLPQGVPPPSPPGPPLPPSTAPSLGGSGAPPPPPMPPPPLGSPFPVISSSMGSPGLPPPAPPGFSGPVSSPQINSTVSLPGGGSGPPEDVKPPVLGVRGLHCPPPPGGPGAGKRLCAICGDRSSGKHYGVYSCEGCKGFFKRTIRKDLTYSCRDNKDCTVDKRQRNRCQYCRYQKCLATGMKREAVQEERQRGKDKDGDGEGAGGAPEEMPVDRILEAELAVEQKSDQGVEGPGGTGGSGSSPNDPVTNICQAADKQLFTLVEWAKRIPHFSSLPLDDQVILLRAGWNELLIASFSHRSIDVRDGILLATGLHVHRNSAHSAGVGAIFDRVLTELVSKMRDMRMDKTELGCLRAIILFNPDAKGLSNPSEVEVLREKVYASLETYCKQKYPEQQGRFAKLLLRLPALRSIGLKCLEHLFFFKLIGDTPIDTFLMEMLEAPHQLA", "assay": "RXR reporter gene assay (luciferase) in COS-1 cells, RXRβ"}}, "note": "pEC50: −log10 of the molar value."}
{"smiles": "CC1(C)CCC(C)(C)c2cc(N(CC3CC3)c3ncc(C(=O)O)cn3)ccc21", "note": "[PA024, reference compound]", "values": [{"measurement": "pEC50", "setting": "RXRγ", "result": 7.96}, {"measurement": "Emax at 1 µM", "setting": "RXRγ; COS-1, read-out: RXRγ Emax (%)", "result": 100, "unit": "%"}, {"measurement": "Retinoid synergistic activity BA(%)", "setting": "[1]", "result": 80, "unit": "%"}, {"measurement": "pEC50", "setting": "RXRβ", "result": 7.62}, {"measurement": "Emax at 1 µM", "setting": "RXRβ; COS-1, read-out: RXRβ Emax (%)", "result": 100, "unit": "%"}]}
